Target: Nociceptin receptor (Homo sapiens, UniProt P41146)
Assay: Displacement of [3H]N/OFQ from human recombinant NOP receptor expressed in CHO cells

SMILES	pKi
CCn1c(=O)n(C2CCN(CCCNC(=O)[C@H]3CCCN3Cc3ccccc3)CC2)c2ccccc21	< 5
O=C(NCCCN1CCC2(CC1)C(=O)NCN2c1ccccc1)[C@H]1CCCN1Cc1ccccc1	< 5

— ChEMBL document CHEMBL1781947, “Structure-activity studies on the nociceptin/orphanin FQ receptor antagonist 1-benzyl-N-{3-[spiroisobenzofuran-1(3H),4'-piperidin-1-yl]propyl} pyrrolidine-2-carboxamide” (Bioorg Med Chem, 2009)
